Assay: Coupling ability (hydrotrope requirement) with nonionic surfactants of different HLB
Assay type: physicochemical
Protocol: Sodium xylene sulfonate (SXS) is often used as a hydrotrope to clarify cloudy formulations. […] In Table 2, the measurement of the amount of hydrotrope or surfactant needed to clear the solution was determined.
The compositions described in Table 2 are made in accordance with the following steps: • Add the water and trisodium citrate and mix until the solution is clear. Add BIO-SOFT® N25-9 slowly until the solution is homogeneous. Add BIO-SOFT® N25-3 and mix until the solution is homogeneous. If the final solution is cloudy, then continue adding the hydrotrope or surfactant and agitate until solution is clear.

For “Sodium linear alkyl benzene sulfonate [LAS]”, the Final appearance (after adding hydrotrope or surfactant to cloudy nonionic blend) was “did not clear,” and the “hydrotrope requirement (actives)” value (amount needed to clear blend of 5% Bio-soft N25-9, 5% Bio-Soft N25-3, 1% trisodium citrate) was 8.3 % actives.

Reference: US8119588B2, “Hard surface cleaner compositions of sulfonated estolides and other derivatives of fatty acids and uses thereof” (Stepan Company, priority 2009, dated 2012)
